Earlier results, collected in article PMC10703426, “New characterization of dihydroergotamine receptor pharmacology in the context of migraine: utilization of a β-arrestin recruitment assay” (Frontiers in Neurology, 2023).

System: 5-HT2A
Conditions: IV DHE (53 ng/mL); cited from earlier work

## CN1C[C@H](C(=O)N[C@]2(C)O[C@@]3(O)[C@@H]4CCCN4C(=O)[C@H](Cc4ccccc4)N3C2=O)C[C@@H]2c3cccc4[nH]cc(c34)C[C@H]21 [DHE, Dihydroergotamine mesylate]
  receptor radioligand binding (active binding): X (An X denotes active binding)

Structures can show the parent of a compound that is named as a salt.
